{"source": "patent US20030134342A1", "about": "“Binding-specific peptides, binding-specific carrier molecules, and uses thereof” (priority 2001, published 2003)", "key": {"[1]": {"test_system": "human bone marrow AML cells", "test": "Effect of phage-peptides on differentiation, cell number and viability of freshly obtained AML patient bone marrow cells cultured seven days", "format": "cell-based", "text": "The effect of various phage-peptides were studied on the differentiation of cells from two AML patients."}, "[2]": {"test_system": "human myeloid leukemia cell line HL60", "test": "Viability of HL60 cells, trypan blue", "format": "cell-based", "conditions": "phage 75", "method": "Studies were conducted of the effects of the free G5 12-8B (artificially synthesized), phage displaying G5 12-8B, the free A2 11-24 peptide, phage displaying the A2 11-24 peptide, a combination of the free G5 and A2 peptides, a combination of pure peptides plus phage displaying the peptides, and several concentrations of peptide."}}}
{"sequence": "EFQQWSGK [G2 11-24]", "values": [{"measurement": "Viability", "setting": "[1]; Patient 1", "result": 62, "unit": "%"}, {"measurement": "Viability", "setting": "[1]; Patient 2", "result": 78, "unit": "%"}]}
{"sequence": "VSEDIYDA [F1 12-8B]", "values": [{"measurement": "Viability", "setting": "[1]; Patient 1", "result": 54, "unit": "%"}, {"measurement": "Viability", "setting": "[1]; Patient 2", "result": 64, "unit": "%"}]}
{"sequence": "NNATFEDG [G2 12-8A]", "values": [{"measurement": "Viability", "setting": "[1]; Patient 1", "result": 52, "unit": "%"}, {"measurement": "Viability", "setting": "[1]; Patient 2", "result": 62, "unit": "%"}]}
{"sequence": "DEKRGPNE [B4(1)]", "values": [{"measurement": "Viability", "setting": "[1]; Patient 1", "result": 54, "unit": "%"}, {"measurement": "Viability", "setting": "[1]; Patient 2", "result": 65, "unit": "%"}]}
{"sequence": "IEETARKG [A2 11-24 phage]", "values": [{"measurement": "Day 5 Viability", "setting": "[2]", "result": 99, "unit": "%"}, {"measurement": "Day 7 Viability", "setting": "[2]", "result": 62, "unit": "%"}, {"measurement": "Day 9 Viability", "setting": "[2]", "result": 76, "unit": "%"}, {"measurement": "Viability", "setting": "[1]; Patient 1", "result": 66, "unit": "%"}, {"measurement": "Viability", "setting": "[1]; Patient 2", "result": 72, "unit": "%"}]}
{"sequence": "EFQQWSGK [G5 12-8B phage]", "values": [{"measurement": "Day 5 Viability", "setting": "[2]", "result": 99, "unit": "%"}, {"measurement": "Day 7 Viability", "setting": "[2]", "result": 97, "unit": "%"}, {"measurement": "Day 9 Viability", "setting": "[2]", "result": 57, "unit": "%"}, {"measurement": "Viability", "setting": "[1]; Patient 1", "result": 51, "unit": "%"}, {"measurement": "Viability", "setting": "[1]; Patient 2, listed as GS-12-8B", "result": 64, "unit": "%"}]}
